Source: paper PMC4673902 (Journal of medicinal chemistry, 2012)

By UniProt entry, the sequences of proteins in these tests, tags left out. Where a name states a change or a piece, a line headed by the entry shows the natural chain unless it says otherwise.
UniProt Q9UPP1: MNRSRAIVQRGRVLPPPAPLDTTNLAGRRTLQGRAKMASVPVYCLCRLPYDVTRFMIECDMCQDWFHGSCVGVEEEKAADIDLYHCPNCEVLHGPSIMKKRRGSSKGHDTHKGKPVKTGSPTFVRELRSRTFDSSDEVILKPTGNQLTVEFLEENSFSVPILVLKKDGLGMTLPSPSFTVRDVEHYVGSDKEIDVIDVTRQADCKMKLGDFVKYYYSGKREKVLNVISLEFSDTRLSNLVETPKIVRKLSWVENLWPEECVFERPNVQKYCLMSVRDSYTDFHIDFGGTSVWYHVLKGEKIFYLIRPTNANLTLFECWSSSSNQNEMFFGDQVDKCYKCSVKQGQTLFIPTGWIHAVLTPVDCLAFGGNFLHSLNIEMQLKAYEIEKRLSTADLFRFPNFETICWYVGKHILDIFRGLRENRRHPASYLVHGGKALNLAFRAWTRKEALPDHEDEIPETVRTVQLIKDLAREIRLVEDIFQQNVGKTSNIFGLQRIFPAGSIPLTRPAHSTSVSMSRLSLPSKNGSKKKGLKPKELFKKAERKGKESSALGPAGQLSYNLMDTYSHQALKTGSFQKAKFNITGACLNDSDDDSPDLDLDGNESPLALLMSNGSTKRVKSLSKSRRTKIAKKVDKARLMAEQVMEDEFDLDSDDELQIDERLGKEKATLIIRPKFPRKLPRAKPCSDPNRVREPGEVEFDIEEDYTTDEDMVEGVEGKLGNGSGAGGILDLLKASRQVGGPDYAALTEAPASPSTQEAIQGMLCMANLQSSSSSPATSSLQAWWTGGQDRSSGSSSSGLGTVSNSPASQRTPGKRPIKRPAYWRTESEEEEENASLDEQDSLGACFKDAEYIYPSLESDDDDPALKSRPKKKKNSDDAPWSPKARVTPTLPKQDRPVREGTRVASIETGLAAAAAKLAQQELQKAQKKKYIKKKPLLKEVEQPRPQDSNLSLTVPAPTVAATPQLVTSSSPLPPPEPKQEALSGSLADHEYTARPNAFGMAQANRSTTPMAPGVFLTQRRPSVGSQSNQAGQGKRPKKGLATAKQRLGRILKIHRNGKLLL

Biological target: PHF8 (Homo sapiens, UniProt Q9UPP1)
Assay: AlphaScreen demethylase activity assay, PHF8
Type: biochemical

CN(C)NC(=O)CCC(=O)O [Daminozide, N-(dimethylamino)succinamic acid]
IC50: ≤ 2000 nM
